Among the data in patent US5128359A, “Benzimidazole and azabenzimidazole derivatives which are thromboxane receptor antagonists, their methods of preparation” (Laboratoires UPSA, priority 1990, dated 1992) are Ki values, retold here.

What is called Ki is the equilibrium dissociation constant of an inhibitor or competing ligand from its target.

The test concerns the target T1, TXA2 receptors of human platelets (Homo sapiens, UniProt P21731).
T1 construct: Human platelets incubate in the presence of a single concentration; endogenous in cells; host or cells: human platelets
T1 sequence (P21731 1-343): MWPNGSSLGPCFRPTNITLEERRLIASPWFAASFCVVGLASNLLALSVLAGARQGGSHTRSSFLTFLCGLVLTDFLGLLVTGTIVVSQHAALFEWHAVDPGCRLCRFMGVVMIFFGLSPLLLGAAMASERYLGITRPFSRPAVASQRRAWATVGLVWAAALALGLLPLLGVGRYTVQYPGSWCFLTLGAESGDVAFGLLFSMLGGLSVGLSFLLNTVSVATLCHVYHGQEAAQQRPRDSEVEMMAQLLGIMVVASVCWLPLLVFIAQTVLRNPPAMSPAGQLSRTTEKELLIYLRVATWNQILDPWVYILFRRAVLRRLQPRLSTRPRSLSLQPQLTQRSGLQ
Kind of test: displacement of radioligand [^125 I]PTA-OH specifically bound to the TXA2 receptors of human platelets. To be noted: determined according to the formula of CHENG and PRUSOFF, read-out: Ki (inhibition constant). Format: binding. The method, then:
The affinity of the products of the Examples described for thromboxane A2 receptors is evaluated by the technique of displacing a radioligand specifically bound to the TXA2 receptors of human platelets. […] The reaction is completed by the addition of a buffer, followed by rapid filtration through […] filters. […] The results are expressed, for the doses tested, as the percentage displacement of the radioligand specifically bound to the TXA2 receptors of human platelets.

Regarding `CC(C)(CC(=O)O)Cc1nc2cc(F)ccc2n1Cc1ccc(Br)cc1F` [Example 105, 4-[1-(2-Fluoro-4-bromobenzyl)-5-fluorobenzimidazol-2-yl]-3,3-dimethylbutanoic acid], the Ki came out at 0.015 µM.
